For two molecules, IC50 results are on record in patent US6696468B2, “(S)-4-AMINO-5-CHLORO-2-METHOXY-N-[1-[1-(2-TETRAHYDROFURYL-CARBONYL)-4-[…]]-4-[…]]BENZAMIDE, PROCESS FOR THE PREPARATION THEREOF, PHARMACEUTICAL COMPOSITION CONTAINING THE SAME, AND INTERMEDIATE THEREFOR” (priority 2002, dated 2004).

Chains of the proteins cited; added tags and fusions are not shown.
UniProt P61169, whole entry: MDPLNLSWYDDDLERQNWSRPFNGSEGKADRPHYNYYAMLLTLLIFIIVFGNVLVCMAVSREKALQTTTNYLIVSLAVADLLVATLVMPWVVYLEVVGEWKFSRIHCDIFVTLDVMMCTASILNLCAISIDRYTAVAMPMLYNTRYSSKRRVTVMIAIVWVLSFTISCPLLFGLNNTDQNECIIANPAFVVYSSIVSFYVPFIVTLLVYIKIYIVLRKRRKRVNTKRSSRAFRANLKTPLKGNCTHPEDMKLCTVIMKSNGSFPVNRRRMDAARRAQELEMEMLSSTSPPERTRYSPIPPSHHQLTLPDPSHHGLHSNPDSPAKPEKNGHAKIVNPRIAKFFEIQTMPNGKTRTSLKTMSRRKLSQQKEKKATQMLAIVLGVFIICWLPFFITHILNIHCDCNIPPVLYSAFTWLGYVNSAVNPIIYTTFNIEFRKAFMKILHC

Structures are written as SMILES.

The target of this experiment is T1, Dopamine D2 receptor (Rattus norvegicus, UniProt P61169).
T1 construct: Crude synaptosome membrane fractions from rat brain was used as a receptor membrane fraction; from tissue; host or cells: rat brain crude synaptosome membrane fraction
The experiment is described as follows: Dopamine D2 receptor binding assay ([3H]spiperone). Conditions: rat brain crude synaptosome membrane fractions. The procedure: Dopamine D2 receptor binding assay and the preparation of receptor membrane fractions therefor were carried out according to a modified method of the method of Creese, I. et al., Eur. J. Pharmacol., 46, 337 (1977) and Peroutka, S. J. and Hamik, A., Eur. J. Pharmacol., 148, 297 (1988).
Crude synaptosome membrane fractions from rat brain was used as a receptor membrane fraction, and [^3H]spiperone (D2) was used as a labeled ligand. A buffer (final volume: 1 ml) containing a receptor membrane fraction and a labelled ligand therefor was incubated for a prescribed period in the presence of a test compound in various concentrations, and the radioactive ligand binding to the receptor was separated on the filter paper using a cell harvester (manufactured by Brandel). The radioactivity on the filter was determined by a liquid scintillation counter, and the total binding of the ligand to the receptor was determined. On the other hand, the non-specific binding was determined in the presence of an excess amount of non-labeled ligand (spiperone (D2)), and the specific binding was obtained by subtracting the non-specific binding from the total binding. The concentration of the test compound causing 50% inhibition of specific binding of the labeled ligand (lC50 value) was determined by probit method.

Turning to `CCN(CC)CCNC(=O)c1cc(Cl)c(N)cc1OC` [Metoclopramide, 4-amino-5-chloro-N-[2-(diethylamino)ethyl]-2-methoxybenzamide], the IC50 came to 480 nM.

Take `COc1cc(N)c(Cl)cc1C(=O)N[C@H]1CCN(CCCOc2ccc(F)cc2)C[C@H]1OC` (relative stereo) [Cisapride, cis-4-amino-5-chloro-N-[1-[3-(4-fluorophenoxy)propyl]-3-methoxy-4-piperidinyl]-2-methoxybenzamide]: the half-inhibitory concentration (IC50) worked out at 390 nM.
